Assays:
[1] = assay type: physicochemical
Experimental: Unbranched straight chain acid salts (commonly termed n-alkylcarboxylates) are not soluble in oil although the corresponding acids are soluble. […] We have observed similar behaviour in phosphates and sulphonates. Sulphates, phosphonates and […] similarly branched chains are expected to behave in essentially the same way. Oligomers of the branched chain salts are also expected to behave in essentially the same way. A variety of metal carboxylates were prepared in heptane by reacting […] 2-ethyl hexanoic acid directly with the metal of choice or with a metal base such as the hydride or hydroxide. […] The example described in detail below is potassium 2-ethyl hexanoate (FIG. 2), the other systems behaving in analogous manners (although the measured conductivities varied somewhat). Metal concentrations of up to about 2 M can be achieved and conductivities of up to about 2 ìS·cm^-1 at 20° C. were measured, such conductivities being above the level required for downhole electrical logging operations.

[2] = Electrical conductivity of solutions of the organic salts in non-aqueous solvents; assay type: physicochemical
Experimental: A variety of metal carboxylates were prepared in heptane by reacting versatic acid and 2-ethyl hexanoic acid directly with the metal of choice or with a metal base such as the hydride or hydroxide. Lithium, sodium, potassium, rubidium, calcium and gadolinium systems were synthesised.
A 1 molar solution of potassium bis(2-ethylhexyl) phosphate in Brij 30 was then prepared by dissolving 18.02 grams of the salt in 47.5 grams (50 ml) of the solubilising agent.
A 1 molar solution of AOT (Aldrich Chemicals) in Brij 30 was prepared by dissolving 22.23 grams of AOT in 47.5 grams (50 ml) of Brij 30.
The final AOT/neopentyl glycol/Brij 30 solution of FIG. 10 (i.e. 1 molar AOT and 2 molar neopentyl glycol in Brij 30) was then diluted with successive amounts of mineral spirits and the conductivity measured at each addition.

| Substance | solubility in oil [1] | conductivity ([2]; 2 M in ether solubilising agent such as 18-crown-6 or Brij 30 (heptane replaced), at 60° C.) | conductivity ([2]; in ether solubilising agent with neopentyl glycol solubilising agent added) |
| --- | --- | --- | --- |
| calcium versatate | particularly soluble in oil |  |  |
| potassium 2-ethyl hexanoate |  | 50 ìS·cm^−1 | ~400 ìS·cm^−1 |

— patent US7399731B2, “Electrically conductive non-aqueous wellbore fluid” (M-I L.L.C., priority 2001, dated 2008)
